Read-outs that look alike come from different tables or passages of the source.
Assays:
BACE1 [1] = target: T1, BACE1 (Homo sapiens (Human), UniProt P56817); assay: Measurement of BACE1 inhibition by fluorescence resonance energy transfer (FRET), MCA substrate; settings: for IC50: read-out: Test Example 1 IC50; for Ki: read-out: Test Example 1 BACE1 MCA Ki
BACE1 [2] = target: T1, BACE1; assay: Measurement of Aβ production inhibition in cell (SK-N-BE(2) neuroblastoma cells, Aβ40 ELISA); settings: Test Example 3 IC50, Aβ40 production, SK-N-BE(2) cells, 6 hours
BACE1 [3] = target: T1, BACE1; assay: Measurement of BACE1 inhibition by time resolved fluorescence resonance energy transfer (TR-FRET); format: biochemical; settings: Eu-CEVNLDAEFK-QSY 7 substrate, read-out: Test Example 2 IC50
[4] = FRET, MCA-SEVNLDAEFK(DNP)-NH2 substrate, pH 4.4

Amino acid sequences for entries named in this document (tags omitted). Residues count along the entry.
UniProt P56817, 75-416: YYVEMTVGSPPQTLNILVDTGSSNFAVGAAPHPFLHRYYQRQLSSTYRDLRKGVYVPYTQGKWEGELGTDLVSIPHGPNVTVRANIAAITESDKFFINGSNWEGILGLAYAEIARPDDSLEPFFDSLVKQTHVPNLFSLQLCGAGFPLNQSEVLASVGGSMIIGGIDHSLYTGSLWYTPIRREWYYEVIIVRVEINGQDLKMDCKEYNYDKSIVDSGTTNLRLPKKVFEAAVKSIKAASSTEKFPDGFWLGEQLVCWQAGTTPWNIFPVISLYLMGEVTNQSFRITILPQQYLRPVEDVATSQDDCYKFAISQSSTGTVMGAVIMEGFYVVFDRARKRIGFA
UniProt P56817, 46-501: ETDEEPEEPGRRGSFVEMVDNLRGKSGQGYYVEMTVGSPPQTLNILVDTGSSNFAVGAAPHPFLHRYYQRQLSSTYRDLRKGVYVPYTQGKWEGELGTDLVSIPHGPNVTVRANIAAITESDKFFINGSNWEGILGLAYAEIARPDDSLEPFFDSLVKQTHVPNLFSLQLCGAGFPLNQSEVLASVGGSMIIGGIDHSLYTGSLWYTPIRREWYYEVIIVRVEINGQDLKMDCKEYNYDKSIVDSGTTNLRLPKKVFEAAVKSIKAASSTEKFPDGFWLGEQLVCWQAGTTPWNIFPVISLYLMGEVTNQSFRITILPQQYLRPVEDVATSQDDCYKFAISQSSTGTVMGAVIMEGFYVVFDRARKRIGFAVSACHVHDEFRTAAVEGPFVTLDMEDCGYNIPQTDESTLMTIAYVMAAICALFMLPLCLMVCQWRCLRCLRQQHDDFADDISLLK

Structure (SMILES) | IC50 (BACE1 [1]; [4]) [nM] | IC50 (BACE1 [2]) [nM] | further results
C[C@@H]1Oc2ccc(Br)cc2[C@@]2(COC(N)=N2)C12COC2 (racemic) [RP 7b] | 39700 |  | 
C[C@@H]1Oc2ccc(-c3cccnc3F)cc2[C@@]2(COC(N)=N2)C12COC2 (racemic) [RP 79] | 1690 | 450 | 
CC1(C)Oc2ccc(NC(=O)c3ccc(Cl)cn3)cc2C2(COC(N)=N2)C12COC2 (stereo not drawn) [Example 27, N-(2-amino-2′,2′-dimethyldispiro[1,3-oxazole-4,4′-chromene-3′,3″-oxetan]-6′-yl)-5-chloropyridine-2-carboxamide] |  | 9.4 | Ki (BACE1 [1]): 38.2 nM; IC50 (BACE1 [1]): 82.2 nM
CC1(C)Oc2ccc(NC(=O)c3ccc(Cl)cn3)cc2[C@@]2(COC(N)=N2)C12COC2 [Example 218, N-[(4S)-2-amino-2′,2′-dimethyldispiro[1,3-oxazole-4,4′-chromene-3′,3″-oxetan]-6′-yl]-5-chloropyridine-2-carboxamide] |  | 0.78 | 
CC1(C)Oc2ccc(NC(=O)c3ccc(Br)cn3)cc2[C@@]2(COC(N)=N2)C12COC2 [Example 219] | 44.4 | 2.2 | IC50 (BACE1 [3]): 41.8 nM
COc1cnc(C(=O)Nc2ccc3c(c2)[C@@]2(COC(N)=N2)C2(CC2)C(C)(C)O3)cn1 [Example 223, N-[(4′R)-2″-amino-2′,2′-dimethyldispiro[cyclopropane-1,3′-chromene-4′,4″-[1,3]oxazol]-6′-yl]-5-methoxypyrazine-2-carboxamide] | 99.1 | 3.1 | 
CC1(C)Oc2ccc(NC(=O)c3cnc(C(F)F)cn3)cc2[C@@]2(COC(N)=N2)C12CC2 [Example 224, N-[(4′R)-2″-amino-2′,2′-dimethyldispiro[cyclopropane-1,3′-chromene-4′,4″-[1,3]oxazol]-6′-yl]-5-(difluoromethyl)pyrazine-2-carboxamide] |  | 0.63 | 
CC1(C)Oc2ccc(NC(=O)c3ccc(Cl)cn3)cc2[C@]2(COC(N)=N2)C12COC2 [Example 228a, N-[(4R)-2-amino-2′,2′-dimethyldispiro[1,3-oxazole-4,4′-chromene-3′,3″-oxetan]-6′-yl]-5-chloropyridine-2-carboxamide] | 30300 |  | Ki (BACE1 [1]; FRET, MCA substrate): 30200 nM
NC1=NC2(CO1)c1cc(NC(=O)c3ncc(Cl)cc3F)ccc1OCC21CC1 (stereo not drawn) [RP 29] |  |  | Ki (BACE1 [1]; FRET, MCA substrate): 240 nM
NC1=NC2(CO1)c1cc(-c3cncc(C4CC4)c3)ccc1OCC21CC1 (stereo not drawn) [RP 57] |  |  | IC50 (BACE1 [1]): 3690 nM
CC#Cc1cncc(-c2ccc3c(c2)C2(COC(N)=N2)C2(COC2)C(C)(C)O3)c1 (stereo not drawn) [RP 110] | 137 | 9.2 | 
CC1(C)Oc2ccc(-c3cc(O)cc(F)c3)cc2C2(COC(N)=N2)C12COC2 (stereo not drawn) [RP 169] | 1410 |  | 
Cc1cc(Cl)cnc1C(=O)Nc1ccc2c(c1)C1(COC(N)=N1)C1(CC1)CO2 (stereo not drawn) [RP 194] |  |  | Ki (BACE1 [1]): 313 nM; IC50 (BACE1 [1]): 349 nM
CC#Cc1cncc(-c2ccc3c(c2)C2(COC(N)=N2)C2(COC2)C(Cc2ccccc2)O3)c1 (stereo not drawn) [RP 201] | 113 | 8.7 | Ki (BACE1 [1]; FRET, MCA substrate): 71.1 nM
CC#Cc1cncc(-c2ccc3c(c2)C2(COC(N)=N2)C2(COC2)C(Cc2ccccc2)O3)c1 (stereo not drawn) [RP 203] | 109 |  | Ki (BACE1 [1]; FRET, MCA substrate): 67.6 nM
